This is an account of results in paper PMC7504039, “Tetrapeptide Ac-HAEE-NH2 Protects α4β2 nAChR from Inhibition by Aβ” (International Journal of Molecular Sciences, 2020).

This experiment concerns the target rat α4β2 nicotinic acetylcholine receptor (α4β2 nAChR) (rat) (UniProt P09483).

Substance “Aβ42, [H2N]-[residues removed]-[COOH] (peptide)” displayed an inhibition of the ACh (100 µM)-evoked ion current in X. laevis oocytes expressing rat α4β2 nAChR after 3 min pre-incubation with 10 µM Aβ42 (two-electrode voltage clamp) of 30%.
